Measured values taken from ChEMBL document CHEMBL1146608, “Design and synthesis of pseudo-symmetric HIV protease inhibitors containing a novel hydroxymethylcarbonyl (HMC)-hydrazide isostere” (Bioorg Med Chem Lett, 2003).

Target: Human immunodeficiency virus type 1 protease (Human immunodeficiency virus 1, UniProt Q72874)
Assay: Inhibitory activity against HIV-1 protease

Cc1cccc(C)c1OCC(=O)N[C@@H](Cc1ccccc1)[C@H](O)C(=O)N(Cc1ccccc1)NC(=O)COc1c(C)cccc1C
IC50: 5 µM | Ki: 5 µM
